pIC50: −log10 of the molar value.

Chains of the proteins cited; added tags and fusions are not shown.
UniProt P04049, whole entry Y340E/Y341E: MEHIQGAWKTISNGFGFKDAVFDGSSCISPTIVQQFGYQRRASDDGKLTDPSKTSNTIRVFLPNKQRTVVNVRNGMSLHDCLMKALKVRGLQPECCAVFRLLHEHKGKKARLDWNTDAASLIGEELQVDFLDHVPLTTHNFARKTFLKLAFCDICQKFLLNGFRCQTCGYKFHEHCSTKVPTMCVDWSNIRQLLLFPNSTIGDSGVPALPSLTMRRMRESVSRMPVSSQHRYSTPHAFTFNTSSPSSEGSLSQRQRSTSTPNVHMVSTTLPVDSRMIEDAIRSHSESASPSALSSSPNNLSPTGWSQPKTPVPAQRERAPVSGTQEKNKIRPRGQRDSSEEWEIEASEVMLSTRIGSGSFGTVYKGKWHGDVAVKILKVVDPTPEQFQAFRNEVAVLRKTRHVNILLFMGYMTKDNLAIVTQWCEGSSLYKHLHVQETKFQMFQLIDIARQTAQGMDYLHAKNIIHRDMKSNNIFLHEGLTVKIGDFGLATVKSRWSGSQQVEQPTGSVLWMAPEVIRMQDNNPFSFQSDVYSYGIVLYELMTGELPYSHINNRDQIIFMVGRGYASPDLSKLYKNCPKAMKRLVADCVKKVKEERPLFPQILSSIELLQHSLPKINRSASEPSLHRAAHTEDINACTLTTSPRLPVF

For one test, the target named is C-Raf FL (full-length C-Raf protein, Y340E and Y341E activating mutations) (Homo sapiens (Human), UniProt P04049, Y340E/Y341E). Format: biochemical. Particulars: AlphaScreen, 60 min pre-incubation, 1 hour reaction; read-out: c-Raf FL IC-50. For orientation: In Alpha technology, singlet oxygen from a donor bead excites a nearby acceptor bead.
`CCOc1nnc(-c2cc(NC(=O)c3ccnc(C(C)(C)C#N)c3)ccc2C)cc1N1CCOCC1` [Example 573, 2-(2-cyanopropan-2-yl)-N-(3-(6-ethoxy-5-morpholinopyridazin-3-yl)-4-methylphenyl)isonicotinamide]: the pIC50 was 9.70.

Take `Cc1ccc(NC(=O)c2cccc(-c3nnco3)c2)cc1-c1cc2[nH]cnc2c(N2CCOCC2)n1` [Example 822, N-(4-methyl-3-(4-morpholino-1H-imidazo[4,5-c]pyridin-6-yl)phenyl)-3-(1,3,4-oxadiazol-2-yl)benzamide]: the pIC50 is 9.15.

As for `Cc1ncc(NC(=O)c2ccnc(C(C)(C)C#N)c2)cc1-c1cc(N2CCOCC2)nc(N2C(=O)OC[C@@H]2C)n1` [Example 784, (S)-2-(2-cyanopropan-2-yl)-N-(6-methyl-5-(2-(4-methyl-2-oxooxazolidin-3-yl)-6-morpholinopyrimidin-4-yl)pyridin-3-yl)isonicotinamide], the pIC50 was 7.29.

`CCNc1nc(-c2cc(NC(=O)c3cccc(C(F)(F)F)c3)cnc2C)cc(N2CCOCC2)n1` [Example 716, N-(5-(2-(ethylamino)-6-morpholinopyrimidin-4-yl)-6-methylpyridin-3-yl)-3-(trifluoromethyl)benzamide]: the pIC50 was 9.22.

Regarding `Cc1ccc(NC(=O)c2ccnc(C(C)C)c2)cc1-c1cc(N2CCOCC2)c2nccn2n1` [Example 842, 2-isopropyl-N-(4-methyl-3-(8-morpholinoimidazo[1,2-b]pyridazin-6-yl)phenyl)isonicotinamide], the pIC50 is 9.52.

For `Cc1ccc(NC(=O)c2ccnc(C(C)(C)C#N)c2)cc1-c1cc(N2CCOCC2)c(=O)n(C)n1` [Example 640, 2-(2-cyanopropan-2-yl)-N-(4-methyl-3-(1-methyl-5-morpholino-6-oxo-1,6-dihydropyridazin-3-yl)phenyl)isonicotinamide], the pIC50 is 8.96.

As for `Cc1ccc(NC(=O)c2ccnc(S(C)(=O)=O)c2)cc1-c1cc(N2CCOCC2)c(OC2CCOCC2)nn1` [Example 582, N-(4-methyl-3-(5-morpholino-6-((tetrahydro-2H-pyran-4-yl)oxy)pyridazin-3-yl)phenyl)-2-(methylsulfonyl)isonicotinamide], the pIC50 was 9.70.

With `Cc1ncc(NC(=O)c2cccc(C(F)F)c2)cc1-c1cc(N2CCOCC2)c(=O)n(C)n1` [Example 681, 3-(difluoromethyl)-N-(6-methyl-5-(1-methyl-5-morpholino-6-oxo-1,6-dihydropyridazin-3-yl)pyridin-3-yl)benzamide], the pIC50 is 9.00.

The same test, now with this note: AlphaScreen, 60 min pre-incubation, reaction 1 hour at room temperature; read-out: c-Raf FL IC-50.
On to `Cc1ccc(NC(=O)c2ccnc(C(C)(C)O)c2)cc1-c1cc(N2CCOCC2)nc(N2CC(O)C2)c1` [Example 1098, N-(3-(2-(3-hydroxyazetidin-1-yl)-6-morpholinopyridin-4-yl)-4-methylphenyl)-2-(2-hydroxypropan-2-yl)isonicotinamide], for which the pIC50 is 8.93.

For `CCOc1ncc(-c2cc(C(=O)Nc3cc(C(F)(F)F)ncc3F)ccc2C)cc1N1CCOCC1` [Example 961, 3-(6-ethoxy-5-morpholinopyridin-3-yl)-N-(5-fluoro-2-(trifluoromethyl)pyridin-4-yl)-4-methylbenzamide], the pIC50 was 9.15.

Turning to `Cc1ccc(NC(=O)c2ccnc(S(C)(=O)=O)c2)cc1-c1cnc(OC[C@H](C)O)c(N2CCOCC2)c1` [Example 989, (S)—N-(3-(6-(2-hydroxypropoxy)-5-morpholinopyridin-3-yl)-4-methylphenyl)-2-(methylsulfonyl)isonicotinamide], the pIC50 was 9.25.

For the compound `Cc1ncc(NC(=O)c2ccnc(S(C)(=O)=O)c2)cc1-c1cc(N2CCOCC2)nc(N2CC(O)C2)c1` [Example 1090, N-(2′-(3-hydroxyazetidin-1-yl)-2-methyl-6′-morpholino-[3,4′-bipyridin]-5-yl)-2-(methylsulfonyl)isonicotinamide], the pIC50 is 7.90.

For `Cc1c(-c2nc3c(c(N4CCOCC4)n2)CS(=O)(=O)C3)cc(NC(=O)c2cccc(C(F)(F)F)c2)c[n+]1[O-]` [Example 887, 2-methyl-3-(4-morpholino-6,6-dioxido-5,7-dihydrothieno[3,4-d]pyrimidin-2-yl)-5-(3-(trifluoromethyl)benzamido)pyridine 1-oxide], the pIC50 is 7.00.

Regarding `Cc1ncc(NC(=O)c2ccnc(C(F)F)c2)cc1-c1cc(N2CCOCC2)nc(N2CCOCC2)c1` [Example 1122, 2-(difluoromethyl)-N-(2-methyl-2′,6′-dimorpholino-[3,4′-bipyridin]-5-yl)isonicotinamide], the pIC50 is 9.43.

Regarding `Cc1ncc(NC(=O)c2cccc(S(C)(=O)=O)c2)cc1-c1cnc(OC2CCOCC2)c(N2CCOCC2)c1` [Example 937, N-(2-methyl-5′-morpholino-6′-((tetrahydro-2H-pyran-4-yl)oxy)-[3,3′-bipyridin]-5-yl)-3-(methylsulfonyl)benzamide], the pIC50 is 8.71.

Take `Cc1ncc(NC(=O)c2ccnc(C3CC3)c2)cc1-c1cnc(OC2CCOCC2)c(N2CCOCC2)c1` [Example 941, 2-cyclopropyl-N-(2-methyl-5′-morpholino-6′-((tetrahydro-2H-pyran-4-yl)oxy)-[3,3′-bipyridin]-5-yl)isonicotinamide]: the pIC50 is 9.17.

`Cc1ncc(NC(=O)c2ccnc(C(C)(F)F)c2)cc1-c1cc(N2CCOCC2)nc(N2CC(O)C2)c1` [Example 1080, 2-(1,1-difluoroethyl)-N-(2′-(3-hydroxyazetidin-1-yl)-2-methyl-6′-morpholino-[3,4′-bipyridin]-5-yl)isonicotinamide]: the pIC50 is 8.62.

In the case of `Cc1ccc(NC(=O)c2ccnc(C(C)(C)C#N)c2)cc1-c1cc(OC2CCOCC2)nc(N2CCOCC2)c1` [Example 1152, 2-(2-cyanopropan-2-yl)-N-(4-methyl-3-(2-morpholino-6-((tetrahydro-2H-pyran-4-yl)oxy)pyridin-4-yl)phenyl)isonicotinamide], the pIC50 is 9.48.

Staying with this test, now noted: Table 2; AlphaScreen, 1 hour reaction; read-out: c-Raf FL IC-50.
Take `Cc1ncc(NC(=O)c2cc(C3CC3)nn2C)cc1-c1cc(N2CCOCC2)c(=O)n(C)c1` [Example 377, 3-cyclopropyl-N-(1′,2-dimethyl-5′-morpholino-6′-oxo-1′,6′-dihydro-[3,3′-bipyridin]-5-yl)-1-methyl-1H-pyrazole-5-carboxamide]: the pIC50 is 7.21.

For the compound `Cc1ccc(NC(=O)c2ccnc(S(C)(=O)=O)c2)cc1-c1ccnc(N2CCOCC2)c1` [Example 73, N-(4-methyl-3-(2-morpholinopyridin-4-yl)phenyl)-2-(methylsulfonyl)isonicotinamide], the pIC50 was 9.52.

For the compound `CCN1CCN(c2cc(C(=O)Nc3cnc(C)c(-c4cc(N5CCOCC5)c(=O)n(C)c4)c3)cc(C(F)(F)F)c2)CC1` [Example 402, N-(1′,2-dimethyl-5′-morpholino-6′-oxo-1′,6′-dihydro-[3,3′-bipyridin]-5-yl)-3-(4-ethylpiperazin-1-yl)-5-(trifluoromethyl)benzamide], the pIC50 is 7.91.

For the compound `Cc1ncc(NC(=O)c2cccc(C(F)(F)F)c2)cc1-c1cnc(OC2CCCC(O)C2)c(N2CCOCC2)c1` (single isomer, unassigned) [Example 320, N-(6′-((3-hydroxycyclohexyl)oxy)-2-methyl-5′-morpholino-[3,3′-bipyridin]-5-yl)-3-(trifluoromethyl)benzamide], the pIC50 is 9.40.

On to `Cc1ccc(C(=O)Nc2cccc(C(F)(F)F)c2)cc1-c1nc(N2CCOCC2)cc(N2CCOCC2)n1` [Example 14, 3-(4,6-dimorpholinopyrimidin-2-yl)-4-methyl-N-(3-(trifluoromethyl)phenyl)benzamide], for which the pIC50 was 9.15.

The values are drawn from US9694016B2 (Novartis AG, priority 2013, dated 2017).
